Earlier results as cited in US6225288A, “Gamma-ketoacid dipeptides as inhibitors of caspase-3” (Merk Frosst Canada & Co., priority 2000, dated 2001).

Key:
[1] = target: T1, caspase-1 (Homo sapiens, UniProt P29466)
T1 sequence (P29466 120-297 limits assumed): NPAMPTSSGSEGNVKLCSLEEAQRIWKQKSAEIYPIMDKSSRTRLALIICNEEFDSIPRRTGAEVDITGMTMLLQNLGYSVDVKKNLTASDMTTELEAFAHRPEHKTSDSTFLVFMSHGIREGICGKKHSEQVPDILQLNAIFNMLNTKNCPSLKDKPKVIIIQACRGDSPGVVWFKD
T1 sequence (P29466 317-404 limits assumed): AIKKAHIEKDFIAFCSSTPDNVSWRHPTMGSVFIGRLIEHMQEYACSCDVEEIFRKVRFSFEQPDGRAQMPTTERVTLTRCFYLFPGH

[2] = target: T2, caspase-3 (Homo sapiens, UniProt P42574)
T2 sequence (P42574 29-175 limits assumed): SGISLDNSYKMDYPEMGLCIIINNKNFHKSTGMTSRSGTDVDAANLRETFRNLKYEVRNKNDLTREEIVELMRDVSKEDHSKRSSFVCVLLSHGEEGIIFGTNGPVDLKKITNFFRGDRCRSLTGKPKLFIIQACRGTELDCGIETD
T2 sequence (P42574 176-277 limits assumed): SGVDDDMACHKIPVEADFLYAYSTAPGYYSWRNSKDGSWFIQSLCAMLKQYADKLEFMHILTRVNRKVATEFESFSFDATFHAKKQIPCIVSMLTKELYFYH

- Ki [2]: < 1 nM
Substance: Ac-DEVD-CHO
- inhibition of caspase-1 (in words) [1]: weaker but reasonable inhibitor of caspase-1
